Bounds are passed on as bounds.

Chains of the proteins cited; added tags and fusions are not shown. A line that says so, or that is headed by a name, gives the form on record, which may keep a tag or linker.
UniProt P13569, with tags, fused parts or gaps DEL508-508: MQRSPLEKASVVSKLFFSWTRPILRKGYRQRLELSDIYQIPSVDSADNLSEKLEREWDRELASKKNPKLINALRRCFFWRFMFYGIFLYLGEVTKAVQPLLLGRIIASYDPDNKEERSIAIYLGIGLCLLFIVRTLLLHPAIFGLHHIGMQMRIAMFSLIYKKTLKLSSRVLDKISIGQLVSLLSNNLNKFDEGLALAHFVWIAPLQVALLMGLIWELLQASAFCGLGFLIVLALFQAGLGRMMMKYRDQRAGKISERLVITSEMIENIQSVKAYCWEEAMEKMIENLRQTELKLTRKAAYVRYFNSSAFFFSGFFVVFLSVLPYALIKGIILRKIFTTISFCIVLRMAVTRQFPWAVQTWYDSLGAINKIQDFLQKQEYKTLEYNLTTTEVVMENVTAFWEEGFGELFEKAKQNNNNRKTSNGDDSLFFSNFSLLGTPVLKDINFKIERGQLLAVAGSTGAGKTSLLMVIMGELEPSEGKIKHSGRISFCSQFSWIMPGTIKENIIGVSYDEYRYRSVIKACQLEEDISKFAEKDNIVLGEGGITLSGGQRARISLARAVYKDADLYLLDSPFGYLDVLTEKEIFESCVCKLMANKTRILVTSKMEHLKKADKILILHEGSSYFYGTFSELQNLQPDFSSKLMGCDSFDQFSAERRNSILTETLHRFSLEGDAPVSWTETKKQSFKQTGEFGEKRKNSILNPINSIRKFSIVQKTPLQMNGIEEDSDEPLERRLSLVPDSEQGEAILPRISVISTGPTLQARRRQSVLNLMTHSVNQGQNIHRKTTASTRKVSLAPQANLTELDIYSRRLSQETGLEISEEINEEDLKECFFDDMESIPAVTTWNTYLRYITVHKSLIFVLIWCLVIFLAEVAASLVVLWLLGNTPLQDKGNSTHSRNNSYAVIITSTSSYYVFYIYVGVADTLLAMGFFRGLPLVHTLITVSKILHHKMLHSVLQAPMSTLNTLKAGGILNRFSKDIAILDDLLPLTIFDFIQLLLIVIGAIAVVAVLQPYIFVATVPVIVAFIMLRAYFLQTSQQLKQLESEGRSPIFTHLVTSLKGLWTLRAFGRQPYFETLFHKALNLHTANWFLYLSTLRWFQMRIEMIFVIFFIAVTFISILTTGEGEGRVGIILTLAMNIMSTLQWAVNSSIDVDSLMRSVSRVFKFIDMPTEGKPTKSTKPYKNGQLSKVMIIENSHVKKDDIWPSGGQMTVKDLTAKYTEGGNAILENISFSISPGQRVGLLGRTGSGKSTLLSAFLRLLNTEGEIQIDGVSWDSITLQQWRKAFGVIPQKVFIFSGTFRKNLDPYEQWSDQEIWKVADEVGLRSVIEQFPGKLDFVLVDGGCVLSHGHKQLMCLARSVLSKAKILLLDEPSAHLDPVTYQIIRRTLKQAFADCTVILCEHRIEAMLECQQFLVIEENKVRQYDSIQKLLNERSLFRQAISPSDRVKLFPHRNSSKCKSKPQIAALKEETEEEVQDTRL

The term EC50 denotes the midpoint of the concentration-response curve. Higher therefore signals lower potency in that assay.

The assay deals with human F508del CFTR (Homo sapiens, UniProt P13569, DEL508-508). The assay is described as follows: CFTR-YFP Assay, CFTR Corrector Protocol (YFP flux assay). Type of assay: cell-based.
For the compound `CCc1ccc(S(=O)(=O)N2CCC(N(C(=O)c3ccccc3Cl)c3ccc(OC)cc3)CC2)cc1`, the EC50 fell in the range of 10 to 20 µM.

`CCc1ccc(S(=O)(=O)N2CCC(N(C(=O)c3ccccc3)c3ccccn3)CC2)cc1` had an EC50 below 10 µM.

Regarding `O=C(c1ccccc1)N(c1ccccn1)C1CCN(S(=O)(=O)c2ccc3c(c2)OCO3)CC1`, the EC50 is below 10 µM.

In turn, `CCc1ccc(S(=O)(=O)N2CCC(N(C(=O)c3ccccc3Cl)c3ccc(F)cc3)CC2)cc1` returned an EC50 of 10 to 20 µM.

The values are drawn from patent US9944603B2, “Compounds and methods for the treatment of cystic fibrosis” (Flatley Discovery Lab, LLC, priority 2013, dated 2018).
